High-throughput results as filed in PubChem BioAssay.
In the library only some 3.7% were active in any assay of this set; here they are far more common.
A549 tox – kills or reduces viability of A549 cells in Nrf2 counter-screen; A549 ARE-Fluc cells, CellTiter-Fluor viability, 18-24 h; Potency, µM (doses to about 46 µM), for the others: at the highest dose activity change, negative = cytotoxicity, most hits filed as inhibitors; 390,000 compounds, 0.16% hits; also: potency is read from the fitted curve at half-maximal effect; % is scaled to controls: 0 for no effect and ±100 for the full control effect
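A549 ARE-Fluc cells in 5% FBS OPTI-MEM, 5000 cells/well, rested 2 h then exposed to compounds in concentration-response for 18-24 h at 37 °C. Viability by CellTiter-Fluor fluorescence (Ex 405/Em 525) after 30 min; luciferase luminescence (BugLite, 15 min, RT) read afterwards.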
miR-21 reporter – miR-21 reporter, rising signal | HeLa miR-21 FLuc reporter, luciferase, 48 h | Potency, µM (top dose mostly 38.3 µM), inactives show at the top dose reporter change, positive = more light | 340,000 tested, under 10 active | AID 2288; active = well fitted rising curve with a large enough effect; inconclusive = small, poorly fitted or top-dose-only effect; inactive = no such curve, though single readings can be large or run the other way;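 further: % of control where 0% means no effect; miR-21 action dims this reporter so a rising signal means less miR-21 action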
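Using DMEM plus 10% FBS, HeLa miR-21-FLuc cells are incubated with test compounds (final up to about 40uM) for 48 hours; firefly luciferase signal is then imaged following reagent-mediated lysis.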
IL-2 act – activates IL-2 in a cell-based reporter assay; activation, % (series mostly up to about 46 µM); IL-2 activation reporter assay, cell-based qHTS; stimulated with anti-CD3/CD4/CD28 beads; in transgenic mouse T cells; 360,000 compounds, 0.065% hits; in the data active = activation above about 50%; inconclusive = mostly about 30% to 49%; also: 0% is about no effect
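Unstimulated transgenic mouse T cells; 60-min compound exposure; bead-based TCR/CD4/CD28 stimulation; 18 h culture, 37 degrees C; dual fluorescence (EGFP, DsRed) plate cytometry.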
Nrf2 activator – activates Nrf2 signaling | AREc32 ARE-luciferase reporter (MCF7-derived line), luminescence, 24 h | Potency, µM (highest dose often 46.1 µM), for the others: top-dose activation, most hits filed as activators | 410,000 compounds, 0.31% hits | AID 624171; also: potency is read from the fitted curve at half-maximal effect; % of control where 0% means no effect; nearly all actives have a fitted effect of over 65% in size
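Nrf2 activation is followed as ARE-luciferase induction in the AREc32 line after one day of compound treatment; luminescence is read with Steady-Glo.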
ClpP mod – qHTS Assay for Activators of ClpP; 340,000 compounds, 1.9% hits; AID 651965, 2013; Potency, µM (doses to about 57.5 µM), for the others: top-dose activity change, negative = active; purified B. subtilis ClpP, FRET peptide cleavage, 20 min; active = well fitted falling curve with a large enough effect; inconclusive = small, poorly fitted or top-dose-only effect; inactive = no such curve, though single readings can be large or run the other way; also: potency is read from the fitted curve at half-maximal effect; the source files actives as falling curves though it sought activators and does not explain the sign; nearly all actives have a fitted effect of over 65% in size
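ClpP 10 microg/mL final, pH 8 Tris/KCl buffer with BSA, glycerol, Tween-20; compound pinned in; FRET-FV substrate; RT 20 min; Ex320/Em430; ΔFRET vs ADEP 5.8 microM, DMSO, no enzyme.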
Nrf2 inh – blocks Nrf2 signaling; A549 ARE-Fluc reporter, luciferase luminescence, 18-24 h; Potency, µM (doses to about 46 µM), for the others: top-dose activity change, negative = inhibition, hits mostly inhibitors; 360,000 compounds, 2.1% hits; AID 504444; also: potency is read from the fitted curve at half-maximal effect; % is scaled to controls: 0 for no effect and ±100 for the full control effect; nearly all actives have a fitted effect of over 60% in size
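Two sequential reads on A549 ARE_Fluc cells exposed to compound for 18-24 h: a CellTiter-Fluor fluorescence read for viability, then a luciferase luminescence read for Nrf2/ARE activity.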
* hit, by the source's call; u = inconclusive; x = not tested or not shown. Unless noted, calls follow the shape of the dose curve; as a rule, active = well fitted curve in the direction sought with a large enough effect; inconclusive = small, poorly fitted or top-dose-only effect, or another doubt; inactive = no such curve, though single readings can be large; an effect the other way counts as inactive or inconclusive.

SMILES	A549 tox	miR-21 reporter	IL-2 act	Nrf2 activator	ClpP mod	Nrf2 inh
Cc1ccc(Oc2nc3c(c(=O)n(Cc4ccccc4)c(=O)n3C)n2C)cc1C	1%	u	x	-1%	2%	18µM*
O=C(Nc1ccc(Cl)cc1Cl)c1cc(S(=O)(=O)N2CCN(c3ccccc3F)CC2)ccc1F	-1%	-2%	x	0%	-7%	x
COc1ccc(CNc2nc3c(c(=O)n(Cc4ccc(Br)cc4)c(=O)n3C)n2C)cc1	-25%	-4%	-2	0%	-8%	18µM*
COc1ccc(Oc2nc3c(c(=O)n(Cc4ccc(Br)cc4)c(=O)n3C)n2C)cc1	0%	-2%	x	0%	-1%	2%
Cn1c(NCc2ccco2)nc2c1c(=O)n(Cc1ccc(Cl)cc1Cl)c(=O)n2C	-13%	-4%	-2	2%	1%	18µM*
O=S(=O)(NCCN1CCN(S(=O)(=O)c2ccccc2F)CC1)c1ccccc1F	0%	x	0	0%	-3%	-4%
O=S(=O)(c1ccc(F)c(F)c1)N1CCN(CCc2ccccc2)CC1	0%	-2%	1	4%	-1%	23µM*
O=S(=O)(c1ccccc1F)N1CCN(CCc2ccccc2)CC1	-4%	15%	-4	4%	2%	18µM*
O=S(=O)(c1ccccc1)N1CCN(CCc2ccccc2)CC1	0%	-1%	2	0%	-1%	u
CC(C)CC(=O)Nc1ccc2nc(SCC(=O)N3CCc4ccccc43)sc2c1	1%	u	x	0%	-11%	-29%
COc1ccc(C2c3c(nc(Cc4ccccc4)[nH]c3=O)Oc3ccc4ccccc4c32)cc1OC (centres undefined)	-6%	x	x	x	x	u
Cc1cc(C(=O)C(C)OC(=O)c2ccc(NC(=O)CC#N)cc2)c(C)n1-c1ccccc1 (centres undefined)	-12%	x	-4	1%	x	18µM*
CCCOc1cccc(-c2cc(-c3n[nH]c(=S)n3CC)c3ccccc3n2)c1	u	7%	-1	5%	-3%	13µM*
O=C(Nc1nc(-c2ccccn2)cs1)c1ccc(Cl)s1	u	15%	-2	5%	-1%	2.6µM*
CC(Oc1cccc(Cl)c1)C(=O)Nc1nc(-c2ccccn2)cs1 (centres undefined)	u	x	-3	u	x	16µM*
CC(Oc1ccccc1)C(=O)Nc1nc(-c2ccccn2)cs1 (centres undefined)	u	x	-1	3%	x	u
Cc1ccc(C(=O)Nc2nc(-c3ccccn3)cs2)s1	-25%	x	0	6%	-3%	-18%
O=C(Nc1nc(-c2cc(Cl)sc2Cl)cs1)c1ccccc1	u	-6%	1	10µM*	-18%	u
O=C(CC(c1cccs1)N1Cc2ccccc2C1=O)Nc1ccccc1F (centres undefined)	0%	13%	x	3%	-3%	20%
CCOC(=O)c1cccc(NC(=O)c2ccc3c(Cl)c4c(nc3c2)CCC4)c1	12%	0%	x	0%	-6%	24%

Quoted from the listing.
Nrf2 inh, O=C(Nc1nc(-c2ccccn2)cs1)c1ccc(Cl)s1 : 2.6µM*
IL-2 act, O=S(=O)(NCCN1CCN(S(=O)(=O)c2ccccc2F)CC1)c1ccccc1F : 0
miR-21 reporter, CCOC(=O)c1cccc(NC(=O)c2ccc3c(Cl)c4c(nc3c2)CCC4)c1 : 0%

2 entries from above, reformatted.
> COc1ccc(Oc2nc3c(c(=O)n(Cc4ccc(Br)cc4)c(=O)n3C)n2C)cc1
  A549 tox: 0%
  miR-21 reporter: -2%
  IL-2 act: x
  Nrf2 activator: 0%
  ClpP mod: -1%
  Nrf2 inh: 2%
> O=S(=O)(c1ccccc1)N1CCN(CCc2ccccc2)CC1
  A549 tox: 0%
  miR-21 reporter: -1%
  IL-2 act: 2
  Nrf2 activator: 0%
  ClpP mod: -1%
  Nrf2 inh: u

Carrying on:
SMILES	A549 tox	miR-21 reporter	IL-2 act	Nrf2 activator	ClpP mod	Nrf2 inh
COCc1cc(C)n(CC(=O)NCc2ccccc2)c(=O)c1C#N	1%	-3%	0	0%	4%	19%
COCc1cc(C)n(CC(=O)NC(C)c2ccccc2)c(=O)c1C#N (centres undefined)	-9%	0%	0	0%	16µM*	3%
CCOc1ccccc1NC(=O)Cn1c(C)cc(COC)c(C#N)c1=O	6%	-3%	1	0%	-21%	3%
COCc1cc(C)n(CC(=O)Nc2ccccc2C(=O)OC)c(=O)c1C#N	6%	-3%	-3	-1%	18µM*	9%
CC1(C)NC(=O)N(CC(O)CNC23CC4CC(CC(C4)C2)C3)C1=O (centres undefined)	3%	-7%	2	-1%	28µM*	5%
O=C(O)C1C2C=CC(O2)C1C(=O)NCc1ccc(Cl)cc1 (centres undefined)	2%	-5%	-1	1%	35µM*	-5%
N#CC(C(=O)OC1CCCCC1)c1nc2ccccc2nc1N1CCOCC1 (centres undefined)	17%	-2%	70*	0%	4%	4%
COc1ccc(CNC(=O)c2ccc3c(c2)N(Cc2cccc(Cl)c2)C(=O)c2ccccc2S3)c(OC)c1	1%	-7%	x	0%	-1%	x
COc1ccccc1C=NNc1ccc([N+](=O)[O-])cn1	-1%	x	73*	4%	-1%	14%
N#Cc1ccccc1Cn1cc(/C=N/Nc2ccc([N+](=O)[O-])cn2)c2ccccc21	u	-4%	74*	-1%	x	u
O=[N+]([O-])c1ccc(NN=Cc2ccccc2)nc1	-12%	x	-5	7%	-3%	u
NC(=O)c1cc2c3ccccc3ccn2c1-c1ccccc1	-10%	15%	-1	10µM*	3%	12%
Cc1cc(C(N)=O)c2ccccc2n1	2%	0%	-3	0%	-7%	4%
CN(C)S(=O)(=O)c1ccc2c(c1)N(CC(=O)Nc1ccc(F)cc1)C(=O)CS2	-1%	-1%	x	0%	0%	u
Cc1ccc2nc(-c3ccc(NC(=O)C4CCCO4)cc3)[nH]c2c1 (centres undefined)	2%	9%	-1	-2%	32µM*	u
Cc1ccc2nc(-c3ccc(NC(=O)Cc4cccs4)cc3)[nH]c2c1	u	-30%	-3	8%	u	u
O=C(Nc1ccc(-c2nc3cc(Cl)ccc3o2)cc1)C1CCCO1 (centres undefined)	-10%	-70%	-4	3%	28µM*	u
COc1ccc(Br)cc1C(=O)Nc1ccc(-c2nc3cc(Cl)ccc3o2)cc1	-4%	-5%	x	3%	-10%	0%
O=C(Nc1ccc(-c2nc3ccccc3o2)cc1)C1CCCO1 (centres undefined)	0%	12%	-2	0%	16µM*	x
O=C(Nc1ccc(-c2nc3cc(Cl)ccc3o2)cc1)c1cc(Br)ccc1Cl	-1%	-50%	x	4%	28µM*	9%
Cc1ccc(N2CC(NC(=O)c3cc4ccccc4o3)CC2=O)cc1C (centres undefined)	-12%	-1%	x	0%	-1%	x
CCOC(=O)N1CCN(Cc2nc3cc(NC(=O)c4ccc(F)cc4)ccc3n2C(C)C)CC1	-17%	23%	x	-1%	2%	9%
Cc1cc(N(C)C)cc(C)c1C=O	x	x	x	x	1%	x
